# Experimental data taken from PubChem BioAssay AID720700 (The Scripps Research Institute Molecular Screening Center, 2013).
# Protein sequences, listed by entry. Tags and fused reporters are not part of them. Lines headed by an entry give the natural chain unless they say otherwise; changes in a name come on top.
# UniProt P19174: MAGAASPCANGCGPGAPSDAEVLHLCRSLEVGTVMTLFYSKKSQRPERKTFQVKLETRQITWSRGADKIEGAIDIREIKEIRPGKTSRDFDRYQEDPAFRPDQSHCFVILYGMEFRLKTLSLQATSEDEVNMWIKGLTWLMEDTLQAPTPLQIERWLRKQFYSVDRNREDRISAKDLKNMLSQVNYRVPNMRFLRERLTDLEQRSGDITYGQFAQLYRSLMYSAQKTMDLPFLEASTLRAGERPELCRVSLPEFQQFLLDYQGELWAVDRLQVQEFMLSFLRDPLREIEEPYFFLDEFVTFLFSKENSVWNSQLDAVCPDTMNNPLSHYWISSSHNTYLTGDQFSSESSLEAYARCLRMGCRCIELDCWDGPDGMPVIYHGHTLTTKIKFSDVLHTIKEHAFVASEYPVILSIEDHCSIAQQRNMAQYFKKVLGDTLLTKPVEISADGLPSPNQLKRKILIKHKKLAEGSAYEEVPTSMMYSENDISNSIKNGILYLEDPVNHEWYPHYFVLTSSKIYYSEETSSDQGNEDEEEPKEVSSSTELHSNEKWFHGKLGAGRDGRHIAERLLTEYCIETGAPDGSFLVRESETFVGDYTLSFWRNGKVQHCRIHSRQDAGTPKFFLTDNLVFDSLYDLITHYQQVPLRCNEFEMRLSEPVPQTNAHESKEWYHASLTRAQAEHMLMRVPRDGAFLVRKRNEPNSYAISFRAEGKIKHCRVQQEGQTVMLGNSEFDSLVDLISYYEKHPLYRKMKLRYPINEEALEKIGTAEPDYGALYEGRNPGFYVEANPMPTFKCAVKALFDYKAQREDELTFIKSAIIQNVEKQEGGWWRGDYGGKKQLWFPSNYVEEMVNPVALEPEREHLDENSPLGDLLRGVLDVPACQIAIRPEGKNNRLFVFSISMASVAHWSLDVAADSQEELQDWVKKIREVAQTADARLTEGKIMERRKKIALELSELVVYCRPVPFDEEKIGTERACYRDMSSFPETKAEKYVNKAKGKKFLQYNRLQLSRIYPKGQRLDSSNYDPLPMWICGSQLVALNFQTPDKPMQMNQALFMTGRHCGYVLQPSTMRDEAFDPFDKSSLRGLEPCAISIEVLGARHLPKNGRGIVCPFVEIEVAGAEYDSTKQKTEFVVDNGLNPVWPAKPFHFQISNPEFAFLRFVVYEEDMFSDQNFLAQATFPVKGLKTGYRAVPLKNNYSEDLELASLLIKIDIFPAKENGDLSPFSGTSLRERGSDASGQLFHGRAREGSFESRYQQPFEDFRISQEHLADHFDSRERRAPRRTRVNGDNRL
# The entries are a selection whose mix differs from that of the whole data set. Active and inactive are the calls of the source. Cut-off read from the data, not from the text of the source: active = inhibition above about 9.5%; inactive = the rest.
# Molecular target: 1-phosphatidylinositol 4,5-bisphosphate phosphodiesterase gamma-1 (Homo sapiens) (UniProt P19174)
# Experiment: blockers of human PLCG1 activity – biochemical, fluorescence, purified enzyme, primary screen (AID 720700)
# Conditions: purified PLC-gamma1, fluorogenic substrate, at 12.2 µM, hits give high values
row,SMILES,inhibition
1,Nc1ccc([As](=O)(O)c2ccc(N)cc2)cc1,inactive: 0.46%
2,O=C(Nc1cc([As](=O)(O)O)ccc1O)c1ccccc1,inactive: 4.26%
3,O=P1(N(CCCl)CCCl)OCCCS1 (stereo unspecified),inactive: 2.68%
4,O=C(O)CNc1ccc([As](=O)(O)O)cc1,inactive: -0.68%
5,O=[N+]([O-])c1cccc(NC2=NCC(CBr)S2)c1 (stereo unspecified),inactive: 2%
6,COC(=O)C1(C)COP(=O)(Nc2ccccc2)OC1 (stereo unspecified),inactive: 1.84%
7,O=[N+]([O-])c1ncn(CCn2ncnc2[N+](=O)[O-])n1,inactive: 1.89%
8,CC(C)(C)C(=O)NC(Sc1ccncn1)C(Cl)(Cl)Cl (stereo unspecified),inactive: 1.55%
9,COP(=O)(OC)N1CC1c1ccccc1 (stereo unspecified),inactive: 0.65%
10,Cc1cc(SC(NC(=O)c2ccccc2)C(Cl)(Cl)Cl)nc(C(C)C)n1 (stereo unspecified),inactive: -6.14%
11,CCCCOc1ccc(C(=O)NCC2(N3CCCCC3)CCCCC2)cc1OC,inactive: 2.76%
12,O=C(O)C(O)c1ccc(N(CCCl)CCCl)cc1 (stereo unspecified),inactive: 1.41%
13,CCOC(=O)Nc1ccc([As](=O)(O)O)c(O)c1,inactive: -0.73%
14,CC1CCNP(=O)(N(CCCl)CCCl)O1 (stereo unspecified),inactive: 0.08%
15,Cc1cc(SC(NC=O)C(Cl)(Cl)Cl)ncn1 (stereo unspecified),inactive: 0.39%
16,O=P(Nc1ccccn1)(c1cccc2ccccc12)c1cccc2ccccc12,inactive: 2.81%
17,O=[N+]([O-])c1ccc(Nc2ccc(Oc3ccc([N+](=O)[O-])cc3[N+](=O)[O-])cc2)c([N+](=O)[O-])c1,inactive: 2.32%
18,CCOC(=O)Nc1cccc([As](=O)(O)O)c1,inactive: 3.25%
19,O=C(O)C(=O)c1ccc(N(CCCl)CCCl)cc1,inactive: 1.4%
20,O=C(Nc1ccncc1[N+](=O)[O-])c1ccc([N+](=O)[O-])cc1[N+](=O)[O-],inactive: -2.84%
21,O=C(COc1ccccc1)OC1CN2CCC1CC2 (stereo unspecified),inactive: -2.48%
22,COC(=O)C1(C)COP(=O)(N2CCCC2)OC1 (stereo unspecified),inactive: 6.25%
23,COP1(=S)c2c(C)nn(CCC#N)c2N=C(c2ccc(F)cc2)N1C (stereo unspecified),inactive: 0.33%
24,CCC(C)N(CC(C)C)C(=S)SC(NC(C)=O)C(Cl)(Cl)Cl (stereo unspecified),inactive: 2.32%
25,O=C(OC1CN2CCC1CC2)c1cccc([N+](=O)[O-])c1 (stereo unspecified),inactive: 2.58%
26,CCOC(=O)c1ccc(NC(=O)C(C)(CCl)SC)cc1 (stereo unspecified),inactive: 4.13%

row,SMILES,inhibition
1,O=P1(N(CCCl)CCCl)Nc2ccccc2N1,inactive: -17.9%
2,O=P1(N(CCCl)CCCl)OCCCN1CCCl (stereo unspecified),inactive: 1.18%
3,COc1cc(I)ccc1[As](=O)(O)O,inactive: 7.3%
4,COc1ccc2nc(NP(=O)(c3ccccc3)c3ccccc3)sc2c1,inactive: -0.33%
5,Cc1c2c(nc3ccccc13)SC(C(Cl)Cl)C2 (stereo unspecified),inactive: -16.5%
6,Cc1cc(=O)[nH]c(N[N+](=O)[O-])n1,inactive: -0.82%
7,O=C(OC1CN2CCC1CC2)C12CC3CC(CC(C3)C1)C2 (stereo unspecified),inactive: 5.7%
8,O=[N+]([O-])c1cc(Oc2ccc([N+](=O)[O-])cc2C(F)(F)F)cc([N+](=O)[O-])c1,inactive: 3.52%
9,COc1ccc(N/C(=N/P(=O)(N2CCOCC2)N2CCOCC2)N2CCOCC2)cc1,inactive: 0.25%
10,Cc1ccc(OP(=O)(Nc2ccc([N+](=O)[O-])cn2)Oc2ccc(C)cc2)cc1,inactive: 3.83%
11,[N-]=[N+]=NC1CCCCC1NC(=O)c1cc([N+](=O)[O-])cc([N+](=O)[O-])c1 (stereo unspecified),inactive: 2.81%
12,Cc1ccc2nc3c(c(C)c2c1)CC(C(Cl)Cl)S3 (stereo unspecified),inactive: -31.5%
13,COc1cc(C(=O)NCC2(N3CCOCC3)CCCCC2)ccc1OCC(C)C,inactive: 2.05%
14,O=[N+]([O-])c1ccc(-c2cc([N+](=O)[O-])c(O)c([N+](=O)[O-])c2)cc1,inactive: 2.63%
15,O=[As](O)(c1ccc(O)cc1)c1ccccc1O,inactive: 1.04%
16,C[As](=O)(O)c1cccc(C(=O)O)c1,inactive: 4.85%
17,O=C(OC1CN2CCC1CC2)c1cccc2[nH]cnc12 (stereo unspecified),inactive: -2.14%
18,CCN(CC)C(=S)SC(NC=O)C(Cl)(Cl)Cl (stereo unspecified),inactive: 0.16%
19,CC(C)NC(=O)NP(=O)(Oc1ccccc1)Oc1ccccc1,inactive: 2.5%
20,ClCCSc1nnc(-c2cccnc2)o1,inactive: 3.42%
21,CC(C)c1ccc(OP(=O)(Nc2ccccn2)Oc2ccccc2F)cc1 (stereo unspecified),inactive: 0.84%
22,COC(=O)C1(C)COP(=O)(N2CCCCCC2)OC1 (stereo unspecified),inactive: 0.89%
23,O=C(O)COc1ccc([As](=O)(O)O)cc1[N+](=O)[O-],inactive: -7.11%
24,Nc1ccccc1[As](=O)(O)c1ccccc1,inactive: 0.93%
25,O=P(Nc1nccs1)(Oc1ccccc1)Oc1ccccc1,inactive: -0.47%
